Data from publication PMC3105092, “Biochemical Comparison of Anopheles gambiae and Human NADPH P450 Reductases Reveals Different 2′-5′-ADP and FMN Binding Traits” (PLoS ONE, 2011).
Where “and” joins values, the source holds several entries; their conditions need not be identical. Equal entries are not always repeated.

System: nicotinamide adenine dinucleotide phosphate, reduced form
Experiment: purified protein, by the assay type
Details: pH 7.7; 25.0 °C

With AgCPR (Anopheles gambiae) the Km was 30.0 µM and 12.4 µM.
